TRPM1 prom inh = reduces MITF-dependent TRPM1 promoter luciferase signal. SK-MEL-5 TRPM1 promoter luciferase, 24 h. inhibition, % at 12.5 µM. 330,000 compounds, 0.83% hits. AID 488899;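 active = mean inhibition across replicates of 60% or more, whatever share of single replicates reaches that level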
MITF act = increases MITF-driven TRPM1 promoter luciferase signal | SK-MEL-5 TRPM1-promoter luciferase, 24 h; % of positive control, neutral wells = 0 | activation, % at 12.5 µM | 300,000 compounds, 0.75% hits | AID 588334;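 active = mean activation of at least 80% with every replicate also reaching 80%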;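 note: 0% = neutral control wells and 100% = parthenolide positive control wells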
PGC1a acetyl inh = modulators of PGC1a acetylation | 350,000 compounds, 0.17% hits | inhibition, % at 15.6 µM | U2OS PGC1a acetylation, AlphaScreen anti-acetyl-lysine; with virally co-expressed GCN5 acetyltransferase;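 active = every replicate shows inhibition of at least 40%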;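 note: 0% = neutral control wells and 100% = positive control wells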
Yeast UUG start-1 = modulators of start codon recognition fidelity in yeast; AID 602363; hit rate 0.13% among 350,000; activity score, % at 18.7 µM; S. cerevisiae UUG-firefly luciferase reporter, luminescence/redox ratio;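 active = replicate mean at a twofold rise or more, about +100% in these data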;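 note: firefly luciferase made from a UUG start codon reports start codon fidelity; reporter light over untreated wells divided by growth signal over untreated wells; some hits fall short of that in this replicate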
miR122 inh = blocks miR-122 activity in Huh7 sensor cells; 340,000 compounds, 0.3% hits; Huh7 miR-122 Renilla luciferase sensor, 48 h; neutral wells = 0, positive control = 100; activation (reporter increase), % at 12.5 µM;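 active = mean replicate activation score at least 90 and every replicate individually at or above 90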;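 note: higher luciferase means less miR-122 activity so hits act as miR-122 inhibitors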
Wnt bcat act = activators of Wnt/beta-catenin signaling; AID 743398; activation, % at 9.35 µM; Wnt/beta-catenin reporter cell assay, activator, plate reader; 300,000 compounds, 1.2% hits; in the data active = activation above about 30%, passing the limit was not always enough;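 note: 0% = neutral control wells and 100% = positive control wells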
Yeast UUG start-2 = alters UUG start codon use in yeast; activation, % at 38 µM; S. cerevisiae UUG-start firefly luciferase, luminescence, 4 h; 100% means double the DMSO signal; 540 tested, under 10 active; shares compounds with Yeast UUG start-1;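 active = signal increase whose fitted curve reaches an absolute level of 40 at a concentration under 10 µM; inactive = activity opposite to the expected increase, or the rest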
* hit, by the source's call; ! = repeats disagree; [ ] = another dose, or the depositor's remark. The list is not random: actives were taken first. Their share in the collection is about 2.1%.

The first 2 records (preview)
What do the screens show for `COc1ccccc1CC(=O)OC(C)C(=O)Nc1ccc(S(=O)(=O)N2CCCCC2)cc1` (stereo unspecified)?
TRPM1 prom inh: 1.3; MITF act: -0.1; PGC1a acetyl inh: -9.8; Yeast UUG start-1: -1.7; miR122 inh: -5.8; Wnt bcat act: -5.8; Yeast UUG start-2: -3.2

What do the screens show for `O=C(C[C@@H]1C[C@H]2c3cc(NC(=O)Nc4ccc(C(F)(F)F)cc4)ccc3O[C@H]2[C@@H](CO)O1)NCc1cc(F)ccc1F`?
PGC1a acetyl inh: 0.6; miR122 inh: 12.4[16.7 µM]

The listing, from the start:
What do the screens show for `COc1ccccc1CC(=O)OC(C)C(=O)Nc1ccc(S(=O)(=O)N2CCCCC2)cc1` (stereo unspecified)?
TRPM1 prom inh: 1.3; MITF act: -0.1; PGC1a acetyl inh: -9.8; Yeast UUG start-1: -1.7; miR122 inh: -5.8; Wnt bcat act: -5.8; Yeast UUG start-2: -3.2

What do the screens show for `O=C(C[C@@H]1C[C@H]2c3cc(NC(=O)Nc4ccc(C(F)(F)F)cc4)ccc3O[C@H]2[C@@H](CO)O1)NCc1cc(F)ccc1F`?
PGC1a acetyl inh: 0.6; miR122 inh: 12.4[16.7 µM]

How did COc1cccc(S(=O)(=O)N[C@H]2CC[C@H](CCn3cc(-c4ccccc4OC)nn3)O[C@H]2CO)c1 do in these assays?
PGC1a acetyl inh: 8.8; Yeast UUG start-1: 5.8

What do the screens show for `Cc1ccccc1NC(=O)/C(=C/c1ccccc1)c1ccccc1`?
TRPM1 prom inh: 5.5; MITF act: -2.1; Yeast UUG start-1: 102.1*; Yeast UUG start-2: -1.1

Results for O=C(Nc1ccccc1)/C(=C/c1ccccc1)c1ccccc1 ?
TRPM1 prom inh: -0.6; MITF act: 2.6; PGC1a acetyl inh: -9.6; Yeast UUG start-1: -14.5; miR122 inh: 2.9

What do the screens show for `C[C@@H]1CN([C@H](C)CO)C(=O)c2cc(NS(=O)(=O)c3ccc(F)cc3)ccc2O[C@H]1CN(C)S(=O)(=O)c1cccs1`?
PGC1a acetyl inh: -5.2; Yeast UUG start-1: 3.3; miR122 inh: -2.9[16.7 µM]

Results for COC(=O)c1ccc(Cc2ccc(C(=O)OC)o2)o1 ?
TRPM1 prom inh: -1.5; MITF act: 3.9; PGC1a acetyl inh: 2.6; Yeast UUG start-1: -11.0; Wnt bcat act: -15.7

What do the screens show for `COC(=O)c1ccc(COC(=O)c2ccc(CO)cc2)o1`?
TRPM1 prom inh: 3.1; MITF act: -2.1; PGC1a acetyl inh: 18.3; Yeast UUG start-1: 185.2*; miR122 inh: 0.1; Wnt bcat act: -0.3; Yeast UUG start-2: -0.5

What do the screens show for `C[C@H]1CN([C@@H](C)CO)C(=O)c2cc(NC(=O)CCC(F)(F)F)ccc2O[C@@H]1CN(C)CC1CCCCC1`?
PGC1a acetyl inh: 5.6; Yeast UUG start-1: -3.7; miR122 inh: 1.0[16.7 µM]

How did COCC(=O)N(C)C[C@H]1Oc2cc(C#CCN(C)C)ccc2S(=O)(=O)N([C@H](C)CO)C[C@H]1C do in these assays?
PGC1a acetyl inh: 0.8; Yeast UUG start-1: 3.8; miR122 inh: -12.4[16.7 µM]

What do the screens show for `CCN1CCN(Cc2ccc(NC(=O)c3ccc(C)c(NC(=O)N4CCNC4=O)c3)cc2C(F)(F)F)CC1`?
TRPM1 prom inh: 12.2; MITF act: -13.9; PGC1a acetyl inh: -6.1; Yeast UUG start-1: 130.6*!; miR122 inh: -6.7; Wnt bcat act: -5.6; Yeast UUG start-2: 13.2

Results for OC(CCN1CCCCC1)(c1ccccc1)C1C[C@@H]2C=C[C@H]1C2 (stereo partly specified) ?
TRPM1 prom inh: -13.4; MITF act: 8.1; PGC1a acetyl inh: -6.8; Yeast UUG start-1: -14.6; miR122 inh: 1.9; Wnt bcat act: 0.1

What do the screens show for `CN1CCN(CC#CC(C)(O)C2CC3C=CC2C3)CC1` (stereo unspecified)?
TRPM1 prom inh: -5.9; MITF act: 8.4; PGC1a acetyl inh: 0.5; Yeast UUG start-1: 166.3*; miR122 inh: 0.6; Yeast UUG start-2: 0.2

How did COc1cc(OC)cc(C(=O)Nc2cccc(NC(=O)c3cccs3)c2)c1 do in these assays?
PGC1a acetyl inh: -0.5; Yeast UUG start-1: 123.8*; miR122 inh: 1.5; Wnt bcat act: -4.9; Yeast UUG start-2: 18.3

What do the screens show for `Cc1cc(C)c(S(=O)(=O)N2CCN(S(=O)(=O)N3CCC(C)CC3)CC2)c(C)c1`?
TRPM1 prom inh: 2.2; MITF act: -1.0; PGC1a acetyl inh: -5.3; Yeast UUG start-1: active; miR122 inh: 0.0; Wnt bcat act: 2.3; Yeast UUG start-2: 9.7

Results for C[C@H](CO)N1C[C@H](C)[C@@H](CN(C)C)Oc2cc(C#Cc3ccccc3F)ccc2S1(=O)=O ?
PGC1a acetyl inh: 11.7; Yeast UUG start-1: -3.5; miR122 inh: 10.2[16.7 µM]

How did C[C@H]1CN([C@@H](C)CO)S(=O)(=O)c2ccc(-c3cccnc3)cc2O[C@@H]1CN(C)C(=O)c1cccc(F)c1 do in these assays?
PGC1a acetyl inh: -6.7; Yeast UUG start-1: 213.8*; miR122 inh: 8.4[16.7 µM]; Yeast UUG start-2: inactive
